Target: T1, human-type PPAR γ ligand-binding domain (Homo sapiens, UniProt P37231)
T1 construct: made in house; host or cells: Escherichia coli
Test: Competition binding with [3H]KRP-297 to 6×His-hPPARγ ligand-binding domain
Conditions: competition with 100 nM [3H]KRP-297; test concentration not given
Text: Proteins (6×His-hPPARs LBD) tagged 6-copy histidine to the side of N-termini in the ligand-binding domains of human-type PPAR α and PPAR γ were expressed in Escherichia coli, respectively, and purified through a nickel column.

Sequences of proteins named here, by UniProt entry; tags and fusion partners are left off. Residues count along the entry.
UniProt P37231, 238-503 limits assumed: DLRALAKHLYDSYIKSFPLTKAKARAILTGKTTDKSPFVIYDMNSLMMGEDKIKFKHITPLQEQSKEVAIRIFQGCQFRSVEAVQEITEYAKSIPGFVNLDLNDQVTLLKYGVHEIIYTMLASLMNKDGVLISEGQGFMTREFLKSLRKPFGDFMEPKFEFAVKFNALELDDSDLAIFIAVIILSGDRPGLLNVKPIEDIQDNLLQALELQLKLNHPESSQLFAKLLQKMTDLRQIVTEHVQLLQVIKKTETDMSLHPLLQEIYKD

CN(CCOc1ccc(CC2SC(=O)NC2=O)cc1)c1ccccn1 (stereo not shown) [BRL-49,653, rosiglitazone, reference compound]
Binding to the ligand-binding domain of PPARγ: 99%

From patent US6762171B1, “Fatty acid CoA thioester inhibitory substance of PPARα and PPARγ” (Kyorin Pharmaceutical Co, Ltd., priority 2002, dated 2004)
